Bioassay records as filed in PubChem.
A549 tox: A549 cytotoxicity, counter-screen for Nrf2 inhibitors; A549 ARE-Fluc cells, CellTiter-Fluor viability, 18-24 h; Potency, µM (series often up to 46 µM), most hits filed as inhibitors; hit rate 0.16% among 390,000; AID 504648
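A549 ARE_Fluc cells in 5% FBS OPTI-MEM were exposed to compounds in concentration-response for 18-24 h at 37 deg C. Viability was read by CellTiter-Fluor fluorescence (Ex 405/Em 525) after 30 min, before the luciferase read.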
Nrf2 ARE act: activates Nrf2 signaling. Potency, µM (top dose mostly 46.1 µM), actives largely listed as activators. AREc32 ARE-luciferase reporter (MCF7-derived line), luminescence, 24 h. hit rate 0.31% among 410,000; further: nearly all actives have a fitted effect of over 65% in size
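For detection, Steady-Glo was added and plates sat 30 min at RT; before that, AREc32_Fluc cells grown overnight in OPTI-MEM/5% FBS had been treated with 23 nL compound for 24 hr at 37 deg C.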
miR-21 reporter: miR-21 reporter, rising signal | AID 2288 | HeLa miR-21 FLuc reporter, luciferase, 48 h | 340,000 tested, under 10 active | Potency, µM (titrated, usually from 38.3 µM); active = well fitted rising curve with a large enough effect; inconclusive = small, poorly fitted or top-dose-only effect; inactive = no such curve, though single readings can be large or run the other way;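 also: miR-21 action dims this reporter so a rising signal means less miR-21 action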
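Using DMEM plus 10% FBS, HeLa miR-21-FLuc cells are incubated with test compounds (final up to about 40uM) for 48 hours; firefly luciferase signal is then imaged following reagent-mediated lysis.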
ClpP mod: qHTS Assay for Activators of ClpP | purified B. subtilis ClpP, FRET peptide cleavage, 20 min | Potency, µM (top dose mostly 57.5 µM) | hit rate 1.9% among 340,000 | AID 651965, 2013; active means well fitted falling curve with a large enough effect; inconclusive means small, poorly fitted or top-dose-only effect; inactive means no such curve, though single readings can be large or run the other way; further: the source files actives as falling curves though it sought activators and does not explain the sign; nearly all actives have a fitted effect of over 65% in size
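FRET quenching reversal measured ClpP activation: 10 microg/mL B. subtilis ClpP at pH 8 with the FRET-FV decapeptide, read at 430 nm after 320 nm excitation. The 20-min minus 0-min signal was scaled between DMSO/no-enzyme wells and ADEP (5.8 microM final).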
IL2 activator: activates IL-2 in a cell-based reporter assay. AID 652025. hit rate 0.065% among 360,000. IL-2 activation reporter assay, cell-based qHTS; stimulated with anti-CD3/CD4/CD28 beads; in transgenic mouse T cells. activation, % (series mostly up to about 46 µM); in the data active means activation above about 50%; inconclusive means mostly about 30% to 49%
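EGFP and DsRed fluorescence is measured by plate cytometry in unstimulated transgenic mouse T cells exposed to compound for 60 minutes, then stimulated 18 hours at 37 degrees C with anti-CD3/anti-CD4 beads plus anti-CD28.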
Nrf2 inh: inhibitors of Nrf2 signaling; Potency, µM (series often up to 46 µM), actives largely listed as inhibitors; hit rate 2.1% among 360,000; A549 ARE-Fluc reporter, luciferase luminescence, 18-24 h; further: nearly all actives have a fitted effect of over 60% in size
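A549 ARE_Fluc cells (5000/well, 5% FBS OPTI-MEM) pre-incubated 2 h, then treated with compounds 18-24 h at 37C/5% CO2 in concentration-response. CellTiter-Fluor viability read first; BugLite luciferase luminescence after 15 min at room temperature gives Nrf2 activity.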
Numbers stand for hits; i = inactive; ? = inconclusive; nt = no result given; [ ] = another dose, or the depositor's remark. This is a sample that favours compounds with a hit; in the whole collection about 3.7% have one here. Unless noted, the call rests on the fitted dose curve; in most records, active means well fitted curve in the direction sought with a large enough effect; inconclusive means small, poorly fitted or top-dose-only effect, or another doubt; inactive means no such curve, though single readings can be large; an effect the other way counts as inactive or inconclusive.

SMILES | A549 tox | Nrf2 ARE act | miR-21 reporter | ClpP mod | IL2 activator | Nrf2 inh
COc1ccc(Br)cc1C1Nc2cccc3cccc(c23)N1 | i | 12.6µM | i | i | i | i
COc1cc(C2Nc3cccc4cccc(c34)N2)ccc1O | i | i | i | i | i | i
N#CC1=C(N)C(C#N)(C#N)C(c2ccncc2)C2CN(C(=O)OCc3ccccc3)CC=C12 (centres undefined) | i | ? | i | i | i | 23.1µM
CCOC(=O)N1CC=C2C(C#N)=C(N)C(C#N)(C#N)[C@H](c3ccccc3OCC)[C@H]2C1 | ? | i | i | i | i | 16.4µM
Nc1c(-c2nc(-c3cccs3)no2)nnn1-c1cccc(F)c1 | i | i | i | i | nt | ?
Cn1c2ccccc2c2ncn(Cc3ccco3)c(=O)c21 | i | ? | i | 31.6µM | i | i
Cn1c2ccc(F)cc2c2ncn(Cc3ccco3)c(=O)c21 | i | i | i | 25.1µM | i | i
CN(C)c1ccc(/C=C2\C=Cc3ccccc32)cc1N | nt | nt | nt | i | nt | nt
CCOCCOC(=O)c1[nH]c2c(c1C)C(=O)CC(c1ccc(OC)c(OC)c1)C2 (centres undefined) | i | i | i | nt | i | 20.6µM
S=C1Nc2ccccc2CS1 | nt | i | nt | i | i | nt
S=C1Cc2ccccc2N1 | 16.4µM | i | ? | i | i | 11.6µM
O=C(NCc1ccccc1Cl)c1ccc(NC(=O)N2CCSc3ccccc32)cc1 | i | i | i | i | nt | i
CCN(CC)CCNC(=S)Nc1ccc2nc(N3CCN(C)CC3)cc(C)c2c1 | ? | i | i | nt | i | i
Cc1cc(N2CCCCC2)nc2ccc(NC(=O)c3ccc(Br)o3)cc12 | ? | i | i | i | i | 20.6µM
CCN(CC)CCNC(=S)Nc1ccc2nc(N3CCCC3)cc(C)c2c1 | 5.8µM | i | i | i | i | i
COc1ccc(N2CCN(C(=O)c3cc4c(-c5ccccc5F)nn(C)c4s3)CC2)cc1 | i | i | i | i | nt | ?
C/C(CC(C)C)=N/Nc1ccc([N+](=O)[O-])cc1[N+](=O)[O-] | i | i | i | i | i | ?
CC(Cc1ccccc1)=NNc1ccc([N+](=O)[O-])cc1[N+](=O)[O-] | ? | i | nt | nt | i | 23.1µM
O=C1c2ccccc2C(=O)N1c1cccc2ncccc12 | i | nt | nt | nt | nt | i
COc1ccc(Cl)cc1NC(=O)N1CCN(S(=O)(=O)c2ccc3c(ccn3C)c2)CC1 | i | i | i | i | nt | nt
Cc1ccc(CSc2nc3c(c(=O)[nH]2)C(c2ccncc2)C2=C(CCCC2=O)N3)cc1 (centres undefined) | i | i | i | 14.1µM | i | i
CCSc1nc2c(c(=O)[nH]1)C(c1ccc(C)cc1)C1=C(CCCC1=O)N2 (centres undefined) | i | i | i | nt | i | i
CC1(C)CC(=O)C2=C(C1)Nc1nc(SCCN3CCOCC3)[nH]c(=O)c1C2c1cccs1 (centres undefined) | i | i | i | 31.6µM | i | nt
CSc1nc2c(c(=O)[nH]1)C(c1cccs1)C1=C(CCCC1=O)N2 (centres undefined) | i | i | i | 22.4µM | i | i
Cn1c(=O)c2c(-c3ccccc3Cl)n(Cc3ccc(Cl)cc3)cc2n(C)c1=O | i | i | i | 25.1µM | nt | i
SMILES | A549 tox | Nrf2 ARE act | miR-21 reporter | ClpP mod | IL2 activator | Nrf2 inh
Cc1cccc(CC(=O)N2CC(=O)Nc3ccc(Br)cc3C2c2ccc(F)cc2)c1 (centres undefined) | i | i | ? | i | nt | i[9.27 µM]
COc1ccc(-n2nc3ccc(N)cc3n2)cc1Cl | i | i | i | i | i | i
COc1ccc(-n2nc3ccc(NS(C)(=O)=O)cc3n2)cc1Cl | i | i | i | 28.2µM | i | ?
Cc1ccc(C(=O)Oc2cc(-c3ccccc3)no2)cc1 | i | i | i | i | i | nt
O=C(Oc1cc(-c2ccccc2)no1)c1ccc(Cl)cc1 | i | i | i | 39.8µM | i | i
Cc1ccc(CO)cc1Nc1ncnc2onc(-c3ccc(F)cc3)c12 | i | i | i | i | nt | i[9.27 µM]
Cc1ccc(N2CCN(c3nc4ccc(C(=O)c5ccccc5)cc4n4cnnc34)CC2)c(C)c1 | i | i | i | i | nt | i
N#Cc1ccccc1Sc1ccccc1C(=O)OCC(N)=O | i | i | i | nt | i | i
